# Values quoted from earlier work as cited in patent publication US20120122951A1 (priority 2009, published 2012).
# Test system: Chinese hamster V79 cells
# Settings: cited from earlier work
substance,measurement,value
methyl gentisic acid,mutagenic activity,no such mutagenic property
